This passage reports pKa results from ChEMBL document CHEMBL2069217, “Self-organizing molecular field analysis of NSAIDs: assessment of pharmacokinetic and physicochemical properties using 3D-QSPkR approach” (Eur J Med Chem, 2012).

A short description of this data set: Dissociation constant, pKa of the compound. It counts as physicochemical.

SMILES strings stand for the structures.

A word on the pKa: it is the pH at which an ionisable group is half protonated. In turn, `CC(C(=O)O)c1cccc(Oc2ccccc2)c1` (stereo unspecified) [FENOPROFEN] had a pKa of 4.5.
